Assay results taken from PMC9939005 (Journal of medicinal chemistry, 2022).
Read-outs that look alike come from different tables or passages of the source. Values belong to the compound of their own block, whether it stands above or below them.

Sequences of proteins named here, by UniProt entry; tags and fusion partners are left off. Residues count along the entry.
UniProt O60674, 536-812: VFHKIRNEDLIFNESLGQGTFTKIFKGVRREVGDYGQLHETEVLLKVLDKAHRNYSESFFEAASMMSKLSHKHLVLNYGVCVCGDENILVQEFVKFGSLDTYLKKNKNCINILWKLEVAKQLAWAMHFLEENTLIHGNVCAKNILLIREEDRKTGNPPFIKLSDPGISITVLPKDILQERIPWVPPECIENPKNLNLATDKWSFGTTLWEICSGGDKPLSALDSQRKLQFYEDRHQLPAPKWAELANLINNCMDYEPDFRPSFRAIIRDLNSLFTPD

Legend:
[1] = system: JAK2 JH2 V617F; type: binding
[2] = biological target: JAK2 JH2 WT (Homo sapiens, UniProt O60674); type: binding; conditions: Kd with WT JAK2 JH2
[3] = system: JAK2 JH2 WT; type: binding
[4] = system: STAT-5 phosphorylation; conditions: cited from earlier work

SMILES: Nc1nc(Nc2ccc(S(N)(=O)=O)cc2)nn1C(=O)Nc1ccc(-c2ccnc(C(=O)O)c2)cc1 [Compound 6, 4-(4-(5-amino-3-((4-sulfamoylphenyl)amino)-1H-1,2,4-triazole-1-carboxamido)phenyl)picolinic acid]
selectivity toward the mutant (V617F) JH2 compared to WT JH2 [1]: 3 fold

more potent than 7 [2]: ~3.5 x
SMILES: Nc1nc(Nc2ccc(S(N)(=O)=O)cc2)nn1C(=O)Nc1ccc(-c2ccc(OCc3ccccc3)c(C(=O)O)c2)cc1 [Compound 11, 4’-(5-amino-3-((4-sulfamoylphenyl)amino)-1H-1,2,4-triazole-1-carboxamido)-4-(benzyloxy)-[1,1’-biphenyl]-3-carboxylic acid]

SMILES: CNC(=O)c1ccc(Nc2nc(N)n(C(=O)Nc3ccc(-c4ccc(OCc5ccccc5)c(C(=O)O)c4)cc3)n2)cc1 [Compound 13, 4’-(5-amino-3-((4-(methylcarbamoyl)phenyl)amino)-1H-1,2,4-triazole-1-carboxamido)-4-(benzyloxy)-[1,1’-biphenyl]-3-carboxylic acid]
greater selectivity over JH1 binding than 2 [3]: 10 fold

SMILES: N#CC[C@H](C1CCCC1)n1cc(-c2ncnc3[nH]ccc23)cn1 [Ruxolitinib, ruxolitinib]
IC50 ([4]; literature report): 274 nM
IC50 ([4]; literature reports): 30 to 100 nM
